Measurements published in patent publication US8466160B2, “Identification of non-small cell lung carcinoma (NSCLC) tumors expressing PDGFR-alpha” (priority 2005, dated 2013).

Tested on: EGFR phosphorylation
Experiment: Western blot of EGFR phosphorylation in H1703 cells
Details: FIG. 9(a)

## COc1cc2ncnc(Nc3ccc(F)c(Cl)c3)c2cc1OCCCN1CCOCC1 [Iressa™]
  effect on EGFR phosphorylation: decreases
